1 compound from patent US7407934B2, “Methods for regulating postprandial blood glucose” (Amylin Pharmaceuticals, Inc., priority 1993, dated 2008) can be followed below.

The nature of assay [1]: Amylin activity in vivo in treated test animals (hyperlactemia, hyperglycemia).
The next assay has as its target T1, amylin receptors (Rattus norvegicus, UniProt P32214).
T1 construct: This basal forebrain tissue, containing the nucleus accumbens and surrounding regions, was weighed and homogenized; from tissue; host or cells: rat basal forebrain (nucleus accumbens and surrounding regions) membranes
T1 sequence (P32214 25-516): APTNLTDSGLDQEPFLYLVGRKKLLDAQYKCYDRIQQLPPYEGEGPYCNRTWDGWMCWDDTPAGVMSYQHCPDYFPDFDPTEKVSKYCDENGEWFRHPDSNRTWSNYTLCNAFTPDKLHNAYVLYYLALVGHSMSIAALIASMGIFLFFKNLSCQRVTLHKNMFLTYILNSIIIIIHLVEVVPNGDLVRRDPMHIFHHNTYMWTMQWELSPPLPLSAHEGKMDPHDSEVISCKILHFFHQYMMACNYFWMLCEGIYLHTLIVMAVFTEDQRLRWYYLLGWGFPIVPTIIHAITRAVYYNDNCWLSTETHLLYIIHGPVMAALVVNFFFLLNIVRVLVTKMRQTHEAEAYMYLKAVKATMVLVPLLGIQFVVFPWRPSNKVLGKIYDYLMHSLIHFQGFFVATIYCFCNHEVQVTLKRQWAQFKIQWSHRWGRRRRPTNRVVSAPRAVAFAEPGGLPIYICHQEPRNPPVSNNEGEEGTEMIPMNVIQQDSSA
Nature of the assay: Receptor binding assay (competition with 125I Bolton-Hunter rat amylin). The text has this:
A preferred source of the membrane preparations used in the assay is the basal foregrain which comprises membranes from the nucleus accumbens and surrounding regions.
Unlabeled peptides were obtained from BACHEM Inc. (Torrance, Calif.) and Peninsula Laboratories (Belmont, Calif.).
Male Sprague-Dawley rats (200-250) grams were sacrificed by decapitation. Brains were removed to cold phosphate-buffered saline (PBS). From the ventral surface, cuts were made rostral to the hypothalamus, bounded laterally by the olfactory tracts and extending at a 45° angle medially from these tracts. This basal forebrain tissue, containing the nucleus accumbens and surrounding regions, was weighed and homogenized in ice-cold 20 mM HEPES buffer (20 mM HEPS acid, pH adjusted to 7.4 with NaOH at 23° C.). […] The final membrane pellet was resuspended in 20 nM HEPES buffer containing 0.2 mM phenylmethylsulfonyl fluoride (PMSF).
Solutions were incubated for 60 minutes at 23° C. […] Filters were washed immediately before filtration with 5 ml cold PBS, and immediately after filtration with 15 ml cold PBS.

Assay [2] concerns insulin-stimulated glycogen synthesis in soleus muscle. Nature of the assay: Soleus muscle assay (inhibition of insulin-stimulated glycogen synthesis). The class given is cell-based, rat. The method, then: Concentrations of peptide dissolved in carrier-free buffers are determined by quantitative amino acid analysis, as described therein. The ability of compounds to act as agonists in this assay is determined by measuring EC50 values. […] Similar results were obtained with other agonist compounds listed above.

A word on the EC50: it is the concentration needed to bring the measured effect to its halfway point. A lower EC50 goes with higher potency in that assay. With `CC[C@H](C)[C@H](NC(=O)[C@@H]1CCCN1C(=O)CNC(=O)[C@H](Cc1ccccc1)NC(=O)[C@H](CC(N)=O)NC(=O)[C@H](CC(N)=O)NC(=O)[C@H](CO)NC(=O)[C@H](CO)NC(=O)[C@H](CCCNC(=N)N)NC(=O)[C@@H](NC(=O)[C@H](CC(C)C)NC(=O)[C@H](Cc1ccccc1)NC(=O)[C@H](CC(N)=O)NC(=O)[C@H](C)NC(=O)[C@H](CC(C)C)NC(=O)[C@H](CCCNC(=N)N)NC(=O)[C@H](CCC(N)=O)NC(=O)[C@@H](NC(=O)[C@H](C)NC(=O)[C@@H]1CSSC[C@H](N)C(=O)N[C@@H](CC(N)=O)C(=O)N[C@@H]([C@@H](C)O)C(=O)N[C@@H](C)C(=O)N[C@@H]([C@@H](C)O)C(=O)N1)[C@@H](C)O)C(C)C)C(=O)N[C@@H](CC(C)C)C(=O)N1CCC[C@H]1C(=O)N[C@@H](CO)C(=O)N[C@H](C(=O)N[C@@H](CC(N)=O)C(=O)N[C@H](C(=O)NCC(=O)N[C@@H](CO)C(=O)N[C@@H](CC(N)=O)C(=O)N[C@H](C(=O)N[C@@H](Cc1ccc(O)cc1)C(N)=O)[C@@H](C)O)C(C)C)[C@@H](C)O` [des-^1Lys^18Arg^25,28Pro-h-Amylin], in assay [1], the “Amylin activity in vivo” value is given as “marked hyperlactemia followed by hyperglycemia”. Further, the “Competition with amylin / receptor binding activity (in words)” value on amylin receptors is “compete with amylin”. Moreover, the concentration giving a half-maximal response (EC50) in assay [2] is 3.77 nM.
